Test results from US8592464B2, “Nitric oxide furoxan derivative compounds endowed with antitumoral activity” (Humanitas Mirasole S.p.A., priority 2009, dated 2013).

Test system: cytolytic activity of CD8+ T cells against allogenic (MBL-2) target cells
Assay: Chromium release assay (in vitro cytotoxicity), B6+C26GM culture: immunosuppressed splenocytes from tumor-bearing mice
Assay type: cell-based

Compound: [O-][n+]1onc2c3no[n+]([O-])c3ccc21
- Range of concentration to rescue cytolytic activity: 1.25 µg/mL
